System: TC-32 Ewing's sarcoma cells
Test: Chou-Talalay combination assay, Cell Titer Glo
Type: cell-based
Settings: 72 hour incubation

SMILES: O=P1(N(CCCl)CCCl)NCCCO1 (stereo not shown) [Cyclophosphamide]
- Synergy with pyrvinium pamoate: No

— patent publication US10933061B2 (Shepherd Therapeutics, Inc., priority 2017, dated 2021)
